Test results: ChEMBL document CHEMBL1137016, “1-alkyl-8-(piperazine-1-sulfonyl)phenylxanthines: development and characterization of adenosine A2B receptor antagonists and a new radioligand with subnanomolar affinity and subtype specificity” (J Med Chem, 2009)

Columns and labels:
Adenosine receptor A2b [1] = target: T1, Adenosine receptor A2b (Homo sapiens, UniProt P29275); experiment: biochemical
T1 sequence (P29275 whole entry): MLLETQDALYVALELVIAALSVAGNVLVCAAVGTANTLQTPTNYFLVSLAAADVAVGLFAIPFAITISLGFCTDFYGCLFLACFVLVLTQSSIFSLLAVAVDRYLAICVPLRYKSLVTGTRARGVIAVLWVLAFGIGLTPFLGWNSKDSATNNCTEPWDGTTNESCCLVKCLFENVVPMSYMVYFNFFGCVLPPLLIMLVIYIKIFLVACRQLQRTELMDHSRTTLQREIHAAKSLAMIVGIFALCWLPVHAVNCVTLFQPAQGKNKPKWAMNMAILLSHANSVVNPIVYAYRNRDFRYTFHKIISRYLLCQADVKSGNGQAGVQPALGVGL

Adenosine receptor A2b [2] = target: T1, Adenosine receptor A2b; experiment: biochemical; remark: listed apart in the source
Adenosine receptor A2b [3] = target: T1, Adenosine receptor A2b; experiment: Displacement of [3H]PSB-603 from human recombinant adenosine A2B receptor expressed in CHO cells; assay type: cell-based
Adenosine receptor A2b [4] = target: T1, Adenosine receptor A2b; experiment: Displacement of [125I]ZM-241385 from human recombinant adenosine A2B receptor expressed in HEK293 cells; assay type: cell-based

Nc1nc2ccc(Cl)cc2c2nc(-c3ccco3)nn12 [CGS-15943]
Ki (Adenosine receptor A2b [1]): 34.2 nM
Ki (Adenosine receptor A2b [2]): 9.8 nM
Ki (Adenosine receptor A2b [3]): 30 nM
Ki (Adenosine receptor A2b [4]): 16.4 nM
